Experimental data published in patent US11066414B2, “Cot modulators and methods of use thereof” (Gilead Sciences, Inc., priority 2015, dated 2021).
pEC50: −log10 of the molar value.

System: TNFα
Assay: Cot Monocyte TNFα Cell Based Assay
Settings: Homo sapiens, Monocyte, read-out: EC50 TNF, LPS-stimulated human monocytes, TNFα

Compound | pEC50
Cn1c(=O)ccc2c([C@H](Nc3cc(Cl)c4ncc(C#N)c(NCC(C)(C)C)c4c3)c3cn(C45CC(C4)C5)nn3)cccc21 [Example 786, (S)-6-(((1-(bicyclo[1.1.1]pentan-1-yl)-1H-1,2,3-triazol-4-yl)(1-methyl-2-oxo-1,2-dihydroquinolin-5-yl)methyl)amino)-8-chloro-4-(neopentylamino)quinoline-3-carbonitrile] | 7.33
CC1(n2cc([C@@H](Nc3cc(Cl)c4ncc(C#N)c(NCC(C)(C)C(F)(F)F)c4c3)c3cccc4ncccc34)nn2)CC1 [Example 797, (S)-8-chloro-6-(((1-(1-methylcyclopropyl)-1H-1,2,3-triazol-4-yl)(quinolin-5-yl)methyl)amino)-4-((3,3,3-trifluoro-2,2-dimethylpropyl)amino)quinoline-3-carbonitrile] | 7.11

Same assay, conditions: Homo sapiens, Monocyte, read-out: EC50 TNF, LPS-stimulated human monocytes, TNFα TR-FRET

Compound | pEC50
C[C@@H](CF)n1cc([C@@H](Nc2cc(Cl)c3ncc(C#N)c(NCC(C)(C)C)c3c2)c2cccc3ncccc23)nn1 [Example 803, 8-chloro-6-(((S)-(1-((S)-1-fluoropropan-2-yl)-1H-1,2,3-triazol-4-yl)(quinolin-5-yl)methyl)amino)-4-(neopentylamino)quinoline-3-carbonitrile] | 7.01
CC(C)(CNc1c(C#N)cnc2c(C#N)cc(N[C@H](c3cn(C4(C(F)F)CC4)nn3)c3ccc(F)c4ncccc34)cc12)C(F)(F)F [Example 815, (S)-6-(((1-{1-(difluoromethyl)-cyclopropyl)-1H-1,2,3-triazol-4-yl)(8-fluoroquinolin-5-yl)methyl)amino)-4-((3,3,3-trifluoro-2,2-dimethylpropyl)amino)quinoline-3,8-dicarbonitrile] | 7.41
CC(C)(CNc1c(C#N)cnc2c(C#N)cc(N[C@H](c3cn(C45CC(C4)C5)nn3)c3ccc(F)c4ncccc34)cc12)C(F)(F)F [Example 816, (S)-6-(((1-(bicyclo[1.1.1]pentan-1-yl)-1H-1,2,3-triazol-4-yl)(8-fluoroquinolin-5-yl)methyl)amino)-4-((3,3,3-trifluoro-2,2-dimethylpropyl)amino)quinoline-3,8-dicarbonitrile] | 7.64
CC(C)(C)CNc1c(C#N)cnc2c(C#N)cc(N[C@H](c3cn(C4(C(F)(F)F)CC4)nn3)c3csc4cnccc34)cc12 [Example 855, (S)-4-(neopentylamino)-6-((thieno[2,3-c]pyridin-3-yl(1-(1-(trifluoro-methyl)cyclopropyl)-1H-1,2,3-triazol-4-yl)methyl)-amino)quinoline-3,8-dicarbonitrile] | 7.28
COc1c([C@@H](Nc2cc(C#N)c3ncc(C#N)c(NCC(C)(C)C)c3c2)c2ccc(F)nc2C)nnn1C1CC1 [Example 859, (S)-6-(((1-cyclopropyl-5-methoxy-1H-1,2,3-triazol-4-yl)(6-fluoro-2-methylpyridin-3-yl)methyl)amino)-4-(neopentylamino)quinoline-3,8-dicarbonitrile] | 7.28
Cc1nc(F)ccc1[C@H](Nc1cc(C#N)c2ncc(C#N)c(NCC(C)(C)C(F)(F)F)c2c1)c1nnn(C2CC2)c1F [Example 864, (S)-6-(((1-cyclopropyl-5-fluoro-1H-1,2,3-triazol-4-yl)(6-fluoro-2-methylpyridin-3-yl)methyl)amino)-4-((3,3,3-trifluoro-2,2-dimethylpropyl)amino)quinoline-3,8-dicarbonitrile] | 7.43

Same assay, conditions: read-out: EC50 TNF; LPS-stimulated human monocytes, TNFα TR-FRET

Compound | pEC50
COc1nccc2c([C@H](Nc3cc(C#N)c4ncc(C#N)c(NCC(C)(C)C)c4c3)c3cn(C4(C5CC5)CC4)nn3)cccc12 [Example 823, (S)-6-(((1-([1,1′-bi(cyclopropan)]-1-yl)-1H-1,2,3-triazol-4-yl)(1-methoxylsoquinolin-5-yl)methyl)amino)-4-(neopentylamino)quinoline-3,8-dicarbonitrile] | 7.28
Cc1nc(F)ccc1[C@H](Nc1cc(C#N)c2ncc(C#N)c(NCC(C)(C)C)c2c1)c1nnn(C2(C3CC3)CC2)c1F [Example 865] | 7.64
